Chains of the proteins cited; added tags and fusions are not shown.
UniProt P35968, whole entry: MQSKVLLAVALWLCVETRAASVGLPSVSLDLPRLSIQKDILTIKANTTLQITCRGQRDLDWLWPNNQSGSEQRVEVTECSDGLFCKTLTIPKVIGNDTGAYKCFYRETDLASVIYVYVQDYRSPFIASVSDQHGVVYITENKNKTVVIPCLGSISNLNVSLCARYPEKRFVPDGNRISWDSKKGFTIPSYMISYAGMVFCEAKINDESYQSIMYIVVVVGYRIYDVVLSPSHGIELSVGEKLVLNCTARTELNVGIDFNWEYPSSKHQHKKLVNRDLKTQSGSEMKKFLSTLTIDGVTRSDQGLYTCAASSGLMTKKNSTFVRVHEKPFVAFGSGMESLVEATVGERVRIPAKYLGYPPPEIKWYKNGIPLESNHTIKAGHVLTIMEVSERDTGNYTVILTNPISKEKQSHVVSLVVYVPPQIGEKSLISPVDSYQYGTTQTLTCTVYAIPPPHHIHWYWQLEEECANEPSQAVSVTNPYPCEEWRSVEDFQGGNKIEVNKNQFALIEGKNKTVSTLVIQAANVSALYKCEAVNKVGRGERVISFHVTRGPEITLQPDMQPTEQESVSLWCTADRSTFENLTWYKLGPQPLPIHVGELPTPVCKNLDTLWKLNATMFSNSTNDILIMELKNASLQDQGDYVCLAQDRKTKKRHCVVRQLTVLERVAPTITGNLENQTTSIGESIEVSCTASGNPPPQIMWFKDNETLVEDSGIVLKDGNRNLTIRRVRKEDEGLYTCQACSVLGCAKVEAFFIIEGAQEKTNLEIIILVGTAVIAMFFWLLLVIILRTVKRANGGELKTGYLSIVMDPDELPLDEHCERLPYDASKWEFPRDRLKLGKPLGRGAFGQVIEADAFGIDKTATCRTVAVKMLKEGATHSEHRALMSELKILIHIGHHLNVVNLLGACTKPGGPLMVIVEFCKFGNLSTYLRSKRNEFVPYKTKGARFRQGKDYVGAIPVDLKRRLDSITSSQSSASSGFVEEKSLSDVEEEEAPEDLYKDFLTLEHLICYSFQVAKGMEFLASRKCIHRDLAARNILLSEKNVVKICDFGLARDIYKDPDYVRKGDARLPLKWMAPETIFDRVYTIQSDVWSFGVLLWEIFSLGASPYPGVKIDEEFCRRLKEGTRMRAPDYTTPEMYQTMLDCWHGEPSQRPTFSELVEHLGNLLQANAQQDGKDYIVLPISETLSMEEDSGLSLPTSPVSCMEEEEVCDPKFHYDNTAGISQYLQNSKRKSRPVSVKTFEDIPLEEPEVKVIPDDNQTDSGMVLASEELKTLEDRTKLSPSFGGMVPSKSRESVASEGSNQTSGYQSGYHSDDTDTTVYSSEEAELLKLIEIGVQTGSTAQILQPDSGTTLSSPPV

In ChEMBL document CHEMBL1150317, “Discovery of aryl aminoquinazoline pyridones as potent, selective, and orally efficacious inhibitors of receptor tyrosine kinase c-Kit” (J Med Chem, 2008):

Target: Vascular endothelial growth factor receptor 2 (Homo sapiens, UniProt P35968)

Structure (SMILES): Cc1ccn(-c2ccc3c(c2)NCC3(C)C)c(=O)c1-c1ccc2nc(N)ncc2c1
- IC50: 0.048 µM
